System: LDL-induced monocyte chemotactic activity in cultures of human aortic endothelial cells
Experiment: HDL-inflammatory index: HDL from treated apoE null mice tested in human aortic endothelial cell cultures
Format: in vivo
Text: 11-month-old female apoE null mice were fasted during the day. At night the mice were provided chow containing or not containing additions. In the first experiment the mice were given chow alone (C) or chow supplemented with 8.0 micrograms of Niclosamide (2′,5-Dichloro-4′-nitrosalicylanilide; Niclosamide, Sigma catalog number N-3510 Page 1711 2006-2007 catalog Empirical Formula (Hill Notation): C13H8C12N2O4 Formula Weight: 327.12, CAS Number: 50-65-7 Batch 105K0666 EC 200-056-8) per gram of chow (D) or chow supplemented with 2.0 micrograms of L-4F (free base) per gram of chow (E), or chow supplemented with 8.0 micrograms of Niclosamide together with 2.0 micrograms of L-4F (free base) per gram of chow (F). The mice were only given one gram of chow per mouse (n=8 mice per group) so that they would consume all of the chow. In the morning after the chow was consumed the mice were bled and their plasma was sucrose cryopreserved and fractionated by FPLC and the HDL-containing fractions were tested for their ability to inhibit monocyte chemotactic activity induced by a standard control human LDL (A) in cultures of human aortic endothelial cells. The mouse HDL (C-J) was also compared to a standard human HDL (B) that was added at the same concentrations as the mouse HDL. The resulting monocyte chemotactic activity was normalized to the standard control LDL added alone (A). The results are plotted as the HDL-inflammatory index, which is the result of dividing the monocyte chemotactic activity measured for each condition by the monocyte chemotactic activity obtained by the standard control LDL added alone, which was normalized to 1.0 as described previously (Navab et al. (2004) J Lipid Res, 45: 993-1007).
A second experiment was performed as described for the first experiment with 8 mice in each group except that the additions to the chow were different. […]

O=C(Nc1ccc([N+](=O)[O-])cc1Cl)c1cc(Cl)ccc1O [Niclosamide, 5-chloro-N-(2-chloro-4-nitrophenyl)-2-hydroxybenzamide, reference compound]
HDL-inflammatory index (FIG. 8, female apoE null mice, additions to 1 g chow overnight: L-4F 2 or 10 μg, Niclosamide 8 or 100 μg): ineffective | HDL-inflammatory index, salicylanilide without peptides (FIG. 24, administered without the peptides): neither niclosamide nor the new salicylanilides were anti-inflammatory | HDL-inflammatory index (FIG. 37, fractions containing 10 μg L-4F or 10 μg niclosamide in ABCT by stomach tube, six hours): neither niclosamide alone nor L-4F alone (12KS) significantly improved

— patent publication US20110183889A1, “SALICYLANILIDE MODIFIED PEPTIDES FOR USE AS ORAL THERAPEUTICS” (The Regents of the University of California, priority 2007, published 2011)
